# Hits are enriched below; roughly 16% of the tested compounds scored in any of these assays.
# TDP1 inh: blocks human tyrosyl-DNA phosphodiesterase 1; Q9NUW8; recombinant TDP1, AlphaScreen DNA substrate cleavage; Potency, µM (highest dose often 130 µM), inactives show at the highest dose activity change, negative = inhibition, hits mostly inhibitors; 0.28% of 350,000 active; AID 485290; note: potency is the fitted concentration of half-maximal effect; % is set by controls: 0 for no effect and ±100 for the full control effect; nearly all actives have a fitted effect of over 40% in size
#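 E. coli-derived human Tdp1, 1 nM final. Cpd preinc 15 min RT; substrate 15 nM final, 5 min RT; AS bead mix 10 ug/ml final, 10 min RT. Signal loss = tyrosine-FITC cleavage. No-enzyme wells = max signal.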
# uPA generation: blocks generation of uPA at the cell surface | cell surface uPA generation assay, qHTS | Potency, µM (highest dose often 38.3 µM), for inactives: at the top dose activity change, negative = inhibition, actives largely listed as inhibitors | 0.31% of 330,000 active | AID 540303; active = well fitted inhibition curve with a large enough effect; inconclusive = small, poorly fitted or top-dose-only effect; inactive = no such curve, though single readings can be large or run the other way; tested in mouse RAW 264.7 cells; note: potency is the fitted concentration of half-maximal effect; % is set by controls: 0 for no effect and ±100 for the full control effect; nearly all actives have a fitted effect of over 55% in size
# TDP1 cell CPT: DT40-hTDP1 cell growth loss with CPT | Potency, µM (series often up to 46.2 µM), without a hit: at the top dose activity change, negative = growth inhibition, most hits filed as inhibitors | 12% of 420,000 active | chicken DT40 Tdp1-/-;hTDP1 cells + 20 nM CPT, ATP luminescence, 48 h; note: potency is the fitted concentration of half-maximal effect; % is set by controls: 0 for no effect and ±100 for the full control effect; nearly all actives have a fitted effect of over 55% in size
#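 Cell growth measured by CellTiter-Glo luminescence after a minimum 48 h, 37 C compound exposure with 20 nM CPT in Tdp1-knockout DT40 cells stably expressing hTDP1, seeded 400/well; qHTS titration format.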
# DT40 TDP1 no CPT: qHTS for Inhibitors of human tyrosyl-DNA phosphodiesterase 1 (TDP1): qHTS in cells in absence of CPT; 15% of 420,000 active; DT40 Tdp1-/- hTDP1 cells, no CPT, ATP luminescence, 48 h; AID 686978, 2013; Potency, µM (top dose mostly 46.2 µM), for inactives: top-dose activity change, negative = growth inhibition, hits mostly inhibitors; note: potency is the fitted concentration of half-maximal effect; % is set by controls: 0 for no effect and ±100 for the full control effect; nearly all actives have a fitted effect of over 55% in size
#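 DT40 Tdp1-/-;hTDP1 cells, no CPT (DMSO vehicle only), 400 cells/well; compounds pin-transferred; ≥48 hr, 37 °C; CellTiter-Glo 30 min RT dark, luminescence read.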
# miR-21 FLuc: miR-21 reporter, rising signal; HeLa miR-21 FLuc reporter, luciferase, 48 h; Potency, µM (titrated, usually from 38.3 µM), without a hit: top-dose reporter change, positive = more light; AID 2288; 340,000 tested, under 10 active; active = well fitted rising curve with a large enough effect; inconclusive = small, poorly fitted or top-dose-only effect; inactive = no such curve, though single readings can be large or run the other way;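 further: % of control where 0% means no effect; miR-21 action dims this reporter so a rising signal means less miR-21 action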
#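 Compounds were titrated across several concentrations (up to approximately 40 uM) and incubated 48 hours with HeLa miR-21-FLuc reporter cells (miR-21 target sequence downstream of FLuc, endogenous miR-21). Readout was firefly luciferase luminescence after lytic detection reagent.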
# Active calls of the source: *; ? = inconclusive; nt = not tested or not shown. Unless noted, calls come from the whole dose curve; as a rule, active = well fitted curve in the direction sought with a large enough effect; inconclusive = small, poorly fitted or top-dose-only effect, or another doubt; inactive = no such curve, though single readings can be large; an effect the other way counts as inactive or inconclusive.
SMILES,TDP1 inh,uPA generation,TDP1 cell CPT,DT40 TDP1 no CPT,miR-21 FLuc
CCOC(=O)C(=CNc1ccc(OC)cc1[N+](=O)[O-])C(=O)OCC,0%,7%,16µM*,12µM*,3%
CCOC(=O)C(=CNc1ccc(Cl)cn1)C(=O)OCC,1%,-4%,0%,?,-4%
c1ccc2nc3c(nc2c1)OCC1CCCCN31 (stereo not given),nt,-10%,-12%,-24%,-45%
CS(=O)(=O)c1ccc(Sc2nc3ccccc3s2)c([N+](=O)[O-])c1,3%,-1%,10µM*,13µM*,?
C=CCOc1ccc(CN(C)CC(=O)Nc2ccc3c(c2)CCC3)cc1,-2%,3%,23µM*,?,-2%
CCOc1cc(CNc2ccc3c(c2)CCC3)ccc1O,6%,-4%,?,23µM*,-27%
CCOc1ccc(CN(C)CC(=O)Nc2ccc3c(c2)CCC3)cc1OC,4%,-5%,?,16µM*,-4%
COc1cc(CNc2ccc3c(c2)CCC3)cc(OC)c1O,-5%,nt,-22%,-25%,-26%
COc1cc(CC(=O)Nc2ccc3c(c2)CCC3)cc(OC)c1OC,2%,-5%,9.2µM*,12µM*,13%
COc1ccc(N(C)S(=O)(=O)c2cccc(C(=O)Nc3nc(C)c(C(C)=O)s3)c2)cc1,4%,7%,?,?,nt
Cc1c(O)nc(SCC(=O)Nc2ccc(Cl)cc2Cl)n(-c2ccc(F)cc2)c1=O,2%,nt,11%,-4%,-1%
CCOc1ccc2nc(N3CCN(C(=O)C(C)C)CC3)sc2c1,3%,nt,?,?,-15%
CCOc1ccc2nc(N3C(=O)/C(=C/c4ccc(Cl)cc4)NC3=S)sc2c1,7%,-15%,?,10µM*,-48%
O=c1[nH]cnc2sc(-c3ccccc3)cc12,3%,-27%,-25%,-12%,-52%
c1ccc(-n2nnc3c(N4CCOCC4)ncnc32)cc1,-4%,nt,-11%,?,26%

# 2 entries picked at random from the list so far:
SMILES,TDP1 inh,uPA generation,TDP1 cell CPT,DT40 TDP1 no CPT,miR-21 FLuc
CCOC(=O)C(=CNc1ccc(OC)cc1[N+](=O)[O-])C(=O)OCC,0%,7%,16µM*,12µM*,3%
CCOc1ccc2nc(N3CCN(C(=O)C(C)C)CC3)sc2c1,3%,nt,?,?,-15%

# New compounds follow.
SMILES,TDP1 inh,uPA generation,TDP1 cell CPT,DT40 TDP1 no CPT,miR-21 FLuc
CCCN(CCC)C(=O)c1nn(C)c2c1CSc1ccc(C)cc1-2,6%,nt,?,18µM*,-2%
CCc1ccccc1N(C)C(=O)c1nn(C)c2c1CSc1ccccc1-2,-3%,nt,?,23µM*,0%
CCCN(CCC)C(=O)c1nn(C)c2c1CSc1ccccc1-2,9%,nt,18µM*,?,-1%
Cn1nc(C(=O)NCc2ccc(F)cc2)c2c1-c1ccccc1SC2,14%,nt,?,?,15%
O=c1c2cc3c(nc2ncn1Cc1ccc(Cl)cc1)CCCC3,3%,nt,?,?,-12%
Cc1ccc(S(=O)(=O)NC(C(=O)N2CCOCCOCCOCCOCC2)C(C)C)cc1 (stereo not given),nt,1%,3%,7%,-1%
CCCCNC(=O)C[C@@H]1C[C@@]2(C(=O)OCC)CCCC=C2N(Cc2ccc3c(c2)OCO3)C1=O,nt,nt,?,21µM*,nt
CCOC(=O)[C@]12CCC=C1N(Cc1ccc3c(c1)OCO3)C(=O)[C@H](CC(=O)NCCCOC)C2,nt,nt,-10%,-27%,nt
CCCCOCCCNC(=O)C[C@@H]1C[C@@]2(C(=O)OCC)CCCC=C2N(Cc2ccc3c(c2)OCO3)C1=O,nt,nt,6.5µM*,?,nt
CCOC(=O)[C@]12CCC=C1N(Cc1ccc3c(c1)OCO3)C(=O)[C@H](CC(=O)NCc1ccc(C)o1)C2,nt,nt,?,23µM*,nt
COC(=O)[C@]12CCCCC=C1N(Cc1ccc3c(c1)OCO3)C(=O)[C@H](CC(=O)NCC13CC4CC(CC(C4)C1)C3)C2,nt,nt,?,18µM*,nt
C=CCNC(=O)c1onc(CSc2cccc(C)c2)c1C(=O)O,-2%,4%,-10%,-8%,2%
O=C(O)CCCn1nc(C(F)(F)F)c2c1CCCCC2,4%,0%,1%,-1%,-5%
CCCCNC(C(=O)Nc1ccc(Cl)c([N+](=O)[O-])c1)c1ccccc1 (stereo not given),-5%,-1%,?,21µM*,-2%
O=C(Nc1cc(Cl)cc(Cl)c1)C(NCCO)c1ccccc1 (stereo not given),-9%,nt,-2%,?,-4%

# The list goes on; the last 3 above are carried over.
SMILES,TDP1 inh,uPA generation,TDP1 cell CPT,DT40 TDP1 no CPT,miR-21 FLuc
O=C(O)CCCn1nc(C(F)(F)F)c2c1CCCCC2,4%,0%,1%,-1%,-5%
CCCCNC(C(=O)Nc1ccc(Cl)c([N+](=O)[O-])c1)c1ccccc1 (stereo not given),-5%,-1%,?,21µM*,-2%
O=C(Nc1cc(Cl)cc(Cl)c1)C(NCCO)c1ccccc1 (stereo not given),-9%,nt,-2%,?,-4%
CC(C)OC(=O)CC1C(=O)NCCN1C(=S)NC(=O)c1cccs1 (stereo not given),-6%,2%,10%,8%,-1%
O=C(Nc1cnc2ccccc2c1)N1CCCCC1,3%,-3%,3%,?,-24%
CC1(C(=O)Nc2cnc3ccccc3c2)CCN1Cc1cc2ccccc2o1 (stereo not given),nt,nt,13µM*,15µM*,nt
CC1(C(=O)Nc2ccc3c(c2)OCCO3)CCN1Cc1ccc2ccccc2c1 (stereo not given),nt,nt,?,-64%,nt
CC1(C(=O)Nc2cnc3ccccc3c2)CCN1Cc1ccc2ccccc2c1 (stereo not given),nt,nt,15µM*,?,nt
O=C(Nc1cnc2ccccc2c1)N1CCOCC1,-1%,12%,-20%,?,-41%
CC(C)c1ccc(CN2CCC2(C)C(=O)Nc2cnc3ccccc3c2)cc1 (stereo not given),nt,nt,18µM*,26µM*,nt
C/C(=N\NS(C)(=O)=O)c1ccc(C)cc1,-1%,1%,0%,-12%,-2%
COc1cc(N2C(=O)C=CC2=O)c(OC)cc1Cl,-8%,-12%,1.8µM*,1.3µM*,?
COc1cc(Cl)c(S(=O)(=O)N2CCCC2)cc1Cl,-3%,-2%,-24%,?,4%
CCOC(=O)c1c(-c2cccs2)csc1NC(=O)CSc1ncn[nH]1,10%,nt,-1%,-10%,11%
Cc1ccc(NC(=O)C2CCN(S(=O)(=O)c3c(C)noc3/C=C/c3ccco3)CC2)nc1,4%,0%,?,18µM*,-6%
Cc1noc(/C=C/c2ccco2)c1S(=O)(=O)N1CCC(C(=O)N2CCc3ccccc3C2)CC1,6%,-13%,21µM*,18µM*,-7%
N#Cc1ccc(-c2nc3ccccc3nc2-c2ccccc2)cc1C#N,3%,1%,?,18µM*,-3%
